From patent EP1049466B1, “CARBONIC ANHYDRASE INHIBITOR FOR INCREASING OXYGEN TENSION IN THE OPTIC NERVE AND RETINA” (Stefansson, Einar, priority 1998, dated 1999)

System: optic nerve
Assay: Oxygen tension of optic nerve (ONPO2), polarographic electrode in the vitreous humour 0.5 mm over the optic disc of anaesthetised pigs
Design: species or system Danish agricultural pigs (landrace)
Conditions: pig, in vivo

CCN[C@H]1C[C@H](C)S(=O)(=O)c2sc(S(N)(=O)=O)cc21.Cl [dorzolamide, (S,S)-(-)-5,6-Dihydro-4-ethylamino-6-methyl-4H-thieno[2,3-b]thiopyran-2-sulfonamide-7,7-dioxide hydrochloride]
raised the optic nerve oxygen tension by: 25-60% | ONPO2 after injection (iv): 26.9 ± 12.2 mmHg | ONPO2 before injection (iv): 16.4 ± 6.1 mmHg | rise of ONPO2 (iv): 52.5%
